This is an account of results in patent US9783495B2, “Treatment for lipodystrophy” (Cadila Healthcare Limited, priority 2011, dated 2017).

The nature of the data set: Solubility of the investigational product. In kind it is physicochemical. To be noted: white, amorphous powder. The procedure: The drug was supplied as uncoated tablets of 4 mg of the active ingredient.

As to “(S)-α-Ethoxy-4-[2-[-methyl-5-[4-(methylthio)phenyl]-1H-pyrrol-1-yl]ethoxy] benzenepropanoic acid magnesium salt [compound of formula (I)]”, the solubility in dichloromethane entry is “freely soluble”, the “solubility in dimethyl sulfoxide” value is listed as “freely soluble”, the solubility in methanol entry was “slightly soluble” and the solubility in water entry is recorded as “insoluble”.
